Results as given in ChEMBL document CHEMBL3875206, “Design, synthesis and biological evaluation of 4'-aminochalcone-rivastigmine hybrids as multifunctional agents for the treatment of Alzheimer's disease” (Bioorg Med Chem, 2017).

Chains of the proteins cited; added tags and fusions are not shown. Lines headed by an entry give the natural chain unless they say otherwise; changes in a name come on top.
UniProt O42275: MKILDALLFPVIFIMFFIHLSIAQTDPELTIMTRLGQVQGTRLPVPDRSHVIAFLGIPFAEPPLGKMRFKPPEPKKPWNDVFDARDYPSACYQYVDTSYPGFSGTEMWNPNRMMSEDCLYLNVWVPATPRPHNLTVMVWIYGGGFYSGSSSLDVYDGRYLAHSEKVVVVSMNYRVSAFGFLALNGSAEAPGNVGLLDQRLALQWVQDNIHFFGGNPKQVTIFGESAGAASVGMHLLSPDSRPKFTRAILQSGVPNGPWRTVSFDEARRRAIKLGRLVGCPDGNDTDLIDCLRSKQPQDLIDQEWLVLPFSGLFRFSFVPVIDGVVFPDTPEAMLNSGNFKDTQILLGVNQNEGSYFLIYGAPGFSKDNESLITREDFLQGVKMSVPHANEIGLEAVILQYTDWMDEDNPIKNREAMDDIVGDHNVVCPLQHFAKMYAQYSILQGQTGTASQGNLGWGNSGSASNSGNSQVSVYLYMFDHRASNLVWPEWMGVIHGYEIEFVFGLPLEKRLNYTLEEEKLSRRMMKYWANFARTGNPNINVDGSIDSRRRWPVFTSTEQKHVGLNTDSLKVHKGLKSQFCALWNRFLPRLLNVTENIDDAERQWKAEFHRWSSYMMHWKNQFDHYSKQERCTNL

Biological target: Acetylcholinesterase (Electrophorus electricus) (UniProt O42275)
Experiment: Potency index, ratio of rivastigmine IC50 to compound IC50 for electric eel AChE

`CN(C)c1ccc(/C=C/C(=O)c2ccc(OC(=O)N3CCCC3)cc2O)cc1` was tested, and the Ratio IC50 was 2.
